Results as given in ChEMBL document CHEMBL1133871, “4-Aminopiperidine ureas as potent selective agonists of the human beta(3)-adrenergic receptor” (Bioorg Med Chem Lett, 2001).

By UniProt entry, the sequences of proteins in these tests, tags left out. Where a name states a change or a piece, a line headed by the entry shows the natural chain unless it says otherwise.
UniProt P08588: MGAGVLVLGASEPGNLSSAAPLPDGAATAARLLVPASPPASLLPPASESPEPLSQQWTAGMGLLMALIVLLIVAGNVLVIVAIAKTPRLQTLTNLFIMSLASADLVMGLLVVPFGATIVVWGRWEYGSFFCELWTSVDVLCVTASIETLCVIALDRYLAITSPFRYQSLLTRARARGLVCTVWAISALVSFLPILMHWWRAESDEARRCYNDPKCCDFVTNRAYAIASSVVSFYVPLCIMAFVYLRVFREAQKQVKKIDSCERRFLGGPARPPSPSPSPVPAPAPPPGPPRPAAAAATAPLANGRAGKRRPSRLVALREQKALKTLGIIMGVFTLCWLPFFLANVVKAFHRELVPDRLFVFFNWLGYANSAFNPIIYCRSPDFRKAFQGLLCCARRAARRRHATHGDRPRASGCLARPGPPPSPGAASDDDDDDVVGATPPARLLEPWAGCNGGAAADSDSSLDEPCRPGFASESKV
UniProt P07550: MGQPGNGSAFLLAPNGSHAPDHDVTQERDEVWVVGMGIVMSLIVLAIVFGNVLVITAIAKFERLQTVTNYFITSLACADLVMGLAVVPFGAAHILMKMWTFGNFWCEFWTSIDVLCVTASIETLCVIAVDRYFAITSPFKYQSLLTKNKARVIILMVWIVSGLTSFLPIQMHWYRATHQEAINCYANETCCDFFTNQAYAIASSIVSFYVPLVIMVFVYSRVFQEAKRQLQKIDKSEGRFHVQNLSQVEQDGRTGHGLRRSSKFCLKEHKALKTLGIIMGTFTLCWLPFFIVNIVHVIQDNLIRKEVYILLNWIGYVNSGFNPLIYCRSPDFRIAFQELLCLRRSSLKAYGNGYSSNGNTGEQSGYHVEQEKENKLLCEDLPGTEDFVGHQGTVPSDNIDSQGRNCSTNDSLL
UniProt P13945: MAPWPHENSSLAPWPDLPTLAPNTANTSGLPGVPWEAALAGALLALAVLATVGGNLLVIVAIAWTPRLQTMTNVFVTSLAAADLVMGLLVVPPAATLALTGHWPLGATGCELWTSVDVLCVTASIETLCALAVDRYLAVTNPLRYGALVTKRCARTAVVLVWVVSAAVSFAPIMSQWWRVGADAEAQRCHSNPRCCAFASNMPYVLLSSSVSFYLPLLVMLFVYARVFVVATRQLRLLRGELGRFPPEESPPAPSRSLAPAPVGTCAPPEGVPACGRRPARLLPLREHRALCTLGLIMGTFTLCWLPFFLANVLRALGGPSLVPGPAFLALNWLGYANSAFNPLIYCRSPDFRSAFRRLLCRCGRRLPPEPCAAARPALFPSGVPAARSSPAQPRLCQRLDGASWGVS

Molecular target: Adrenergic receptor beta (Homo sapiens, UniProt P08588+P07550+P13945)
Assay: In vitro agonistic activity against cAMP accumulation level in CHO cells expressing human beta-AR receptor
Type: functional, cell-based

O=C(NC1CCCCC1)N1CCC(Nc2ccc(CCNC[C@H](O)COc3ccc(O)cc3)cc2)CC1
EC50: 77 nM
